Laboratory results from paper PMC12288609 (Bioorganic & medicinal chemistry letters, 2024).

Tested on: HUVECs
Assay: Endothelial cell tube formation assay
Conditions: 10 μM

## O=C1CCC(NC(=O)c2cc(F)c(F)c(F)c2F)C(=O)N1 (stereo not shown) [Compound 6]
  Antiangiogenic activity in the tube formation assay: Neither 5 and 6, in accordance with previous investigations,[13] nor the new compounds 9–19 demonstrated significant antiangiogenic activity
